What was measured:
[1] = tested on: isolated urinary bladder; assay: Anticholinergic activity on isolated urinary bladder (inhibition of carbachol-induced contraction of bladder strips); set-up: species or system guinea-pigs; conditions: read-out: Antichol. effect IC50; guinea-pig bladder strips contracted with carbachol 3 x 10^-6M; 60 minutes incubation with antagonist; tested form: HBr
Excerpt: a) Anticholinergic activity on isolated urinary bladder
Male guinea-pigs, weighing 250-350 g, were killed by a blow on the head and exsanguinated. The urinary bladders were quickly removed and placed in Na^+-Krebs, in which they were kept throughout the dissection procedure. The bladders were dissected free from adherent fat and connective tissue before they were cut open by an incision on each side from the base towards apex. The mucosa was carefully removed with a pair of scissors. Four strips, approximately 3-5 mm long were prepared by cutting in a parallel direction to the longitudinal muscle fibres, on each half of the bladder.
The bladder strips were immediately mounted vertically in 5 ml organ baths containing Na^+-Krebs solution aerated with carbogene gas to maintain the pH at about 7.4. The temperature, 37°C, was thermostatically controlled by a Lauda MS3 thermostatic circulator. The preparations were suspended between two hooks, one of which was connected to a Grass Instruments FT03 force transducer. The isomeric tension of the preparations was recorded by a Grass polygraph model 79D. The resting tension was applied to approximately 5 mN. […]
Initially each antagonist was tested in a concentration of 10-t1M, on. two bladder-strips from different guinea-pigs. […] The effect of the antagonists was calculated as per cent inhibition of the mean of the initial agonist-induced contractions. […]

By UniProt entry, the sequences of proteins in these tests, tags left out.
UniProt P31389, whole entry: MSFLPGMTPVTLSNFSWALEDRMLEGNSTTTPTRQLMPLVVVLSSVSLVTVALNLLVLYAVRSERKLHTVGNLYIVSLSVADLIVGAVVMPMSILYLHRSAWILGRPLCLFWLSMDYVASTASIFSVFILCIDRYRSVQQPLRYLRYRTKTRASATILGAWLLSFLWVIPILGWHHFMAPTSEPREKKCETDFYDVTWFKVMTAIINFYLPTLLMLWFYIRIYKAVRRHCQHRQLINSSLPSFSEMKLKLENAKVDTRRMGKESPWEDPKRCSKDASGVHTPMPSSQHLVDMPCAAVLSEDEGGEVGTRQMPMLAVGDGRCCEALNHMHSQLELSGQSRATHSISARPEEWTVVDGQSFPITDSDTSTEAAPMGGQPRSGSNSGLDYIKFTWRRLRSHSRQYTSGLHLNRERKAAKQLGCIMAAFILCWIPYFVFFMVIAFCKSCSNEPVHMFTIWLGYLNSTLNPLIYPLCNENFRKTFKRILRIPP

[2] = tested on: portal vein; assay: Noradrenaline antagonism on isolated portal vein; conditions: read-out: Anti-N.A. effect IC50; rat portal vein; noradrenaline 3 x 10-^7 M; 10 minutes incubation; tested form: HBr
Excerpt: (§1) b) Antagonistic effect to noradrenaline and calcium on the portal vein
(§2) Preparation of isolated portal vein from rat
(§3) Animals : Albino, male rats, weighing about 200 g.
(§4) The rat is killed by a blow on the neck and decapitated. The abdomen is opened, the vein is dissected free from fat, cut open longitudinally and mounted in an organ bath. Changes in isometric tension is registered by a force displacement transducer, connected to an amplifier and a writing oscillograph.
Noradrenaline - antagonism on portal vein
Doses: Noradrenaline 3 x 10-^7 M
(§5) The chosen doses give about 70% of maximal response. The agonist is added to the bath at 10-minutes intervals. When reproducible contractions are obtained a fixed concentration of the test substance is added to the bath. After an incubation period of 10 minutes noradrenaline is added. The next concentration of the test substance is added when the original response of the agonist is obtained.
The antagonistic effect of the substance is calculated as per cent inhibition of the mean response by three preceding doses of the agonist.

[3] = tested on: portal vein; assay: Ca-antagonistic effect on isolated portal vein (spontaneous myogenic activity); conditions: read-out: Anti-Ca effect IC50; rat portal vein; 10 mM K^+-solution added; cumulative doses; tested form: HBr
Excerpt: as §1, §2, §3, §4
Ca - antagonistic effect on portal vein
10 mM K^+-solution is added to the Krebs buffer to stabilize the spontaneous myogenic activity of the vein. The amplitude of the muscle contractions is measued. The test substance is added to the bath in cumulative doses until total inhibition is obtained.

[4] = molecular target: isolated ileum (Cavia porcellus, UniProt P31389); assay: Histamine antagonism on isolated ileum; set-up: species or system guinea pigs; conditions: read-out: Anti-HI effect IC50; guinea pig ileum; 5 x 10-^7 M of histamine; tested form: HBr
Method: c) Histamine-antagonism on isolated ileum
Preparation of isolated ileum from guinea pigs
The guinea pig is killed by a blow on the neck and decapitated. The abdomen is opened and about 2 cm of the ileum is cut off about 15 cm above the ileocaecal junction. The piece of ileum is washed with buffer and mounted in an organ bath. Changes in isometric tension is recorded by a force displacement transducer, connected to an amplifier and a writing oscillograph.
Dose : 5 x 10-^7 M of histamine.
as §5, with “dose of histamine gives” for “doses give”, “3-minutes” for “10-minutes”, “2-10” for “10”, “a new contraction” for “noradrenaline”, “induced by histamine.” for “added.”
The agonistic effect of the test substance is calculated as per cent inhibition of the mean response by three preceding doses of histamine.

[5] = tested on: mice; assay: Acute toxicity in mice, i.v. bolus; type: in vivo; conditions: tested form: HBr

Question: What does the source list for CN(CCC(c1ccccc1)c1ccc(O)cc1O)C(C)(C)C (stereo not drawn)?
Answer: IC50 [1]: 0.2 µM; IC50 [2]: 30 µM; IC50 [3]: 65 µM; IC50 [4]: 13 µM; Acute toxicity i.v. ([5]; LD50-interval: between highest dose where 4 mice survived and lowest dose where 4 mice died within 5 minutes after i.v. bolus): >20 mg/kg; Lethal dose ([5]; lowest dose where 4 mice of 4 tested died within 5 minutes after i.v. bolus): >20 mg/kg
